# Assay results reported in PubChem BioAssay AID686978 (National Center for Advancing Translational Sciences (NCATS), 2013).
# Several values for one entry are separate records, joined by “and”; a condition that tells them apart may be missing. Entries that show only a call come without a potency. Equal entries are not always repeated. The entries are a selection whose mix differs from that of the whole data set. Records with an inconclusive call do not appear. Activity calls are given as the source filed them. The call rests on the fitted dose curve; in most records, active means well fitted inhibition curve with a large enough effect; inconclusive means small, poorly fitted or top-dose-only effect; inactive means flat fitted curve, though single readings scatter.
# Assay: qHTS for Inhibitors of human tyrosyl-DNA phosphodiesterase 1 (TDP1): qHTS in cells in absence of CPT; further: nearly all actives have a fitted effect of over 55% in size
# Settings: DT40 Tdp1-/- hTDP1 cells, no CPT, ATP luminescence, 48 h; series mostly up to 46.2 µM
# Potency means the concentration at half of the fitted maximal effect.
row,Compound,Potency
1,COc1ccc(CC(C)NCC(O)c2ccc(O)c(NC=O)c2)cc1 (centres undefined),inactive
2,N[C@@H](Cc1ccc(N(CCCl)CCCl)cc1)C(=O)O,active: 531 nM and active: 231 nM
3,COc1ccc(C[C@@H](C)NC[C@H](O)c2ccc(O)c(NC=O)c2)cc1,inactive
4,NC(Cc1ccc(N(CCCl)CCCl)cc1)C(=O)O (centres undefined),active: 5.17 µM and active: 224 nM
